Experimental data reported in ChEMBL document CHEMBL1132920, “Syntheses of (R)- and (S)-2- and 6-fluoronorepinephrine and (R)- and (S)-2- and 6-fluoroepinephrine: effect of stereochemistry on fluorine-induced adrenergic selectivities” (J Med Chem, 2000).

Chains of the proteins cited; added tags and fusions are not shown. Lines headed by an entry give the natural chain unless they say otherwise; changes in a name come on top.
UniProt P15823: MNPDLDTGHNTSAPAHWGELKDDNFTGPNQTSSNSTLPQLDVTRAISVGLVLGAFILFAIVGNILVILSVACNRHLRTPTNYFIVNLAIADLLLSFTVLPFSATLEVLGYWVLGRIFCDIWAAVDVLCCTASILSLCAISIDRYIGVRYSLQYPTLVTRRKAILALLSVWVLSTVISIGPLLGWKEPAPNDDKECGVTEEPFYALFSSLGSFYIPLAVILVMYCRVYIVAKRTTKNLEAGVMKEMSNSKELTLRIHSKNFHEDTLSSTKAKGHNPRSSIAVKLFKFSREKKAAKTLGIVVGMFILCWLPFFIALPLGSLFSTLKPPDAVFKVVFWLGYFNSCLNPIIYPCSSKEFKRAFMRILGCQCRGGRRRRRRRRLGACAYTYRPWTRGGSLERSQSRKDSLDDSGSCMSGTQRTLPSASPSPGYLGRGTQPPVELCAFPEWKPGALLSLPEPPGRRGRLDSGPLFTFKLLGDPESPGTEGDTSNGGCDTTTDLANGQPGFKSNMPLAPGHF
UniProt P23944: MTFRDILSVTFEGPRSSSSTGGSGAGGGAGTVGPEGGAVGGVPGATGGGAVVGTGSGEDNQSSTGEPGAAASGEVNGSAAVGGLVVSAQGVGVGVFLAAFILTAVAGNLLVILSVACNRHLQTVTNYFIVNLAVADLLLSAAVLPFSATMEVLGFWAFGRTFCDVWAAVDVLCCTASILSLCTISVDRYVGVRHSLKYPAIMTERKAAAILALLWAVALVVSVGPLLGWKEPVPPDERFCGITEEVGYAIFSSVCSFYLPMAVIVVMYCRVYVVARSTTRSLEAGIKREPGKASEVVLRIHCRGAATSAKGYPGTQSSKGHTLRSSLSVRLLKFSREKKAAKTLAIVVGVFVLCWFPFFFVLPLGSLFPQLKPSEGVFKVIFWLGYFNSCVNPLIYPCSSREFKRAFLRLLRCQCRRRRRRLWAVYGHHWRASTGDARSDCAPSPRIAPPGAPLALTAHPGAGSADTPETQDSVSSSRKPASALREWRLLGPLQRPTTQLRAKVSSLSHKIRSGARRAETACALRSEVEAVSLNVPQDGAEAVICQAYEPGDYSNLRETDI
UniProt P43140: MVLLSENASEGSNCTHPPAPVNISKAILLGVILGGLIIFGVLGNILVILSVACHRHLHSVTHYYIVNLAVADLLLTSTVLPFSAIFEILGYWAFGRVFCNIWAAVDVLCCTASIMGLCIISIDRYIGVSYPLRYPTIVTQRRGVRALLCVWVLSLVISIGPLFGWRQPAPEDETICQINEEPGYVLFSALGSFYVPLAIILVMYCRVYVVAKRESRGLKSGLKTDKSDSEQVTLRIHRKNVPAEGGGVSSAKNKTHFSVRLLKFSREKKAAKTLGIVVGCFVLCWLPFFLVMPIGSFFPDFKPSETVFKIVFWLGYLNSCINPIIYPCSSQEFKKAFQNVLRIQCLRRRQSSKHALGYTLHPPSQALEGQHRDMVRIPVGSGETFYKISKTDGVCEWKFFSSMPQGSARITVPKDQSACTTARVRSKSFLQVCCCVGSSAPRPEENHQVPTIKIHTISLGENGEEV
UniProt P22086: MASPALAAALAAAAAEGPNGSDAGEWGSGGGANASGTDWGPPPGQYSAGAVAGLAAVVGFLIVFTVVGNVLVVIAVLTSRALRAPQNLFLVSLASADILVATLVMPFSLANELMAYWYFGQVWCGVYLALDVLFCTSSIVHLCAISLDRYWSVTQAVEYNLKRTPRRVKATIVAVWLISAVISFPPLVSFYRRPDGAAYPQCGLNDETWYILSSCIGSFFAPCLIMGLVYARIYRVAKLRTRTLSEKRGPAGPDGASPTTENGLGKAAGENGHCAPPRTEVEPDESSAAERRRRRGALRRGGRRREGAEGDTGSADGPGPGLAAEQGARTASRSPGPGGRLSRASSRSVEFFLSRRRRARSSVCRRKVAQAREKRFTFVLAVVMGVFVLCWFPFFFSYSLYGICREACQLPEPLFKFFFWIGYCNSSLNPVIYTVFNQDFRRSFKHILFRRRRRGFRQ
UniProt P19328: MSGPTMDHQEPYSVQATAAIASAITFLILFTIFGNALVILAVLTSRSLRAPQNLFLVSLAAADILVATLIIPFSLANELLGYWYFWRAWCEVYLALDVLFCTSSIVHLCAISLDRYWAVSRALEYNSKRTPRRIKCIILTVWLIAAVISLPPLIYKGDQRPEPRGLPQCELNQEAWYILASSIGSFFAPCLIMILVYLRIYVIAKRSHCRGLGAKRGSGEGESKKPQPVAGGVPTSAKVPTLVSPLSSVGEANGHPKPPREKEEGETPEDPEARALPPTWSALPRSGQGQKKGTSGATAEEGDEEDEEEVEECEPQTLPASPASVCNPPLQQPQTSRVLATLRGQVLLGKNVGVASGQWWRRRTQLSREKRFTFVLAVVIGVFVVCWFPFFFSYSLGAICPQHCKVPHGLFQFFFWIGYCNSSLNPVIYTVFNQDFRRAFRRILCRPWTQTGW
UniProt P22909: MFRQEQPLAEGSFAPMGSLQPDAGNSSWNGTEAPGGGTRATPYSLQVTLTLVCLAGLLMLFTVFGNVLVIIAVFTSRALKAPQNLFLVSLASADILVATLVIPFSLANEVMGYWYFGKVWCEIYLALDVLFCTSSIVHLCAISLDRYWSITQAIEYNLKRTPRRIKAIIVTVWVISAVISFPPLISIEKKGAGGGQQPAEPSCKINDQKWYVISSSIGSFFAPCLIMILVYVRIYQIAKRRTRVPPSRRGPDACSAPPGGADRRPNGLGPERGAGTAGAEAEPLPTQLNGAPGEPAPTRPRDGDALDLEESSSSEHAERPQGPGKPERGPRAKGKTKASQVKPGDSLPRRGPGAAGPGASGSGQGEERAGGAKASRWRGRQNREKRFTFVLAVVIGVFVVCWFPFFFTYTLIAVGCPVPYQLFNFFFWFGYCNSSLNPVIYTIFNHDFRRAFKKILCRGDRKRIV

How the values were obtained:
[1] = molecular target: Adrenergic receptor alpha-1 (Rattus norvegicus, UniProt P15823+P23944+P43140); assay: Binding of [3H]prazosin to alpha-1 adrenergic receptor of rat cerebral cortical membranes; format: cell membranes, Membrane
Outline: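 Affinity at alpha-1 adrenergic receptors measured as inhibition of specific [3H]prazosin binding to rat cerebral cortical membranes.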

[2] = molecular target: Adrenergic receptor alpha-2 (Rattus norvegicus, UniProt P22086+P19328+P22909); assay: Binding of [3H]clonidine to alpha-2-adrenergic receptor of rat cerebral cortical membranes; format: cell membranes, Membrane

Row | Ki [1] | Ki [2] | SMILES
1 | 2.8 µM | 15 nM | CNC[C@H](O)c1ccc(O)c(O)c1 (racemic) [EPINEPHRINE]
2 | 1.6 µM | 13 nM | CNC[C@H](O)c1ccc(O)c(O)c1 [EPINEPHRINE]
3 | ~ 20 uM | 45 nM | CNC[C@@H](O)c1ccc(O)c(O)c1 [L-ADRENALINE]
